Sequences of proteins named here, by UniProt entry; tags and fusion partners are left off.
UniProt P37231, whole entry: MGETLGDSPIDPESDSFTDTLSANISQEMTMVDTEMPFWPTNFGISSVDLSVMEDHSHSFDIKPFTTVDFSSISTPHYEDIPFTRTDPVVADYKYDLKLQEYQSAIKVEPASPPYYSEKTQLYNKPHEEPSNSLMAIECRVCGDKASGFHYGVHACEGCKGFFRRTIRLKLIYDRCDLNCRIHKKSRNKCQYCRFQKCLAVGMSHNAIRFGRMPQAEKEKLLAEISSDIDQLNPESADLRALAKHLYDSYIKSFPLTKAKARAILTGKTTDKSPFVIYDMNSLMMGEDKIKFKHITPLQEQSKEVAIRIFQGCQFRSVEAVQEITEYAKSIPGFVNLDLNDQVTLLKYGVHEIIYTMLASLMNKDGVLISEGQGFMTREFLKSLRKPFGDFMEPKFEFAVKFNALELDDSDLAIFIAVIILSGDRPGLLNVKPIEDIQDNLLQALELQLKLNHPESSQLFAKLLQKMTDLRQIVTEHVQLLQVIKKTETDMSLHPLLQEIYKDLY

The target in the assay is PPARγ (Homo sapiens, UniProt P37231). The assay can be described thus: PPARγ ligand binding assay utilizing [3H]-BRL 49653 as the radioligand (filtration). The settings on record: read-out: PPARγ Binding IC50 Filtration; concentration required to reduce by 50% the specific binding of [3H]-BRL 49653. An excerpt: The compounds of the present invention can be evaluated for modulation of the PPARγ receptor using assays such as those described in Jiang, et al., Nature 391:82-86 (1998), Ricote, et al., Nature 391:79-82 (1998) and Lehmann, et al., J. Biol. Chem. 270(12): 12953-12956 (1995). Alternatively, the compounds can be evaluated for their ability to displace radiolabeled BRL 49653 from a PPARγ-GST fusion protein as follows:
PPARγ-GST fusion protein (prepared according to standard procedures), [^3H]-BRL 49653 having 50 Ci/mmol specific activity, Polyfiltronics Unifilter 350 filtration plate and glutathione-Sepharose® beads (from Pharmacia: washed twice with 10× binding buffer in which BSA and DTI can be left out).
Binding buffer (10 mM Tris-HCl, pH 8.0, 50 mM KCl, 10 mM DTT, 0.02% BSA and 0.0 1% NP-40) is added in 80-μL amounts to the wells of the filtration plate. The test compound is then added in 10 μL of DMSO. The PPARγ-GST fusion protein and radiolabeled BRL compound are premixed in binding buffer containing 10 mM DTT and added in 10-μL amounts to the wells of the plate to provide final concentrations of 1 µg/well of PPARγ-GST fusion protein and 10 nM [^3H]-BRL 49653 compound. The plate is incubated for 15 min. Glutathione-agarose bead is added in 50 μL of binding buffer, and the plate is vigorously shaken for one hour. The plate is washed four times with 200 μL/well of binding buffer (without BSA and DTT). The bottom of the plate is sealed and 200 μL/well of scintillation cocktail is added. The top of the plate is then sealed and the radioactivity is determined.
IC50 values are defined as the concentration of test compounds required to reduce by 50% the specific binding of [^3H]-BRL 49653 and are represented by (+)<30 μM; (++)<10 μM; (+++)<1 μM.
Turning to `CC(=O)c1cc(NS(=O)(=O)c2ccc(Cl)cc2Cl)cc(Cl)c1Oc1ccc(S(=O)(=O)N2CCCCC2)cc1`, the IC50 is below 1000 nM. In the case of `COc1ccc(S(=O)(=O)Nc2cc(Cl)c(Oc3ccc(S(=O)(=O)N4CCOCC4)cc3)c(C(C)=O)c2)cc1`, the IC50 is below 10000 nM. For the molecule `O=C(c1cc(NS(=O)(=O)c2ccc(C(F)(F)F)cc2Cl)ccc1Oc1ccc(S(=O)(=O)N2CCCCC2)cc1)N1CCCC1`, the IC50 was below 1000 nM.

As for `CC(=O)c1cc(NS(=O)(=O)c2ccc(S(C)(=O)=O)cc2)cc(Cl)c1Oc1ccc(S(=O)(=O)N2CCOCC2)cc1`, the IC50 is below 30000 nM. For `CCCCc1nc(NS(=O)(=O)c2ccc(Cl)cc2Cl)ncc1Sc1ccc([N+](=O)[O-])cc1`, the IC50 is below 10000 nM. Consider `CCN(CC)S(=O)(=O)c1ccc(Oc2c(Cl)cc(NS(=O)(=O)c3cc(C)c(Cl)cc3Cl)cc2C(C)=O)cc1C`, for which the IC50 is below 1000 nM.

For `CCC(=O)c1cc(NS(=O)(=O)c2ccc(C(F)(F)F)cc2Cl)ccc1Oc1ccc(S(=O)(=O)N2CCCCC2)cc1`, the IC50 was below 1000 nM. For the molecule `CC(=O)c1cc(NS(=O)(=O)c2ccc(C(F)(F)F)cc2Cl)ccc1Oc1ccc(S(=O)(=O)N2CCOCC2)cc1`, the IC50 is below 1000 nM. For `Cc1cc(S(=O)(=O)Nc2cc(Cl)c(Oc3ccc(S(=O)(=O)N4CCOCC4)cc3)c(Cl)c2)c(Cl)cc1Cl`, the IC50 is below 1000 nM. The figure for `Cc1cc(Oc2ccc(NS(=O)(=O)c3ccc(Cl)cc3Cl)cc2C(=O)NCC(C)C)ccc1S(=O)(=O)N1CCCCC1` is below 1000 nM; for `Cc1cc(Oc2ccc(NS(=O)(=O)c3ccc(Cl)cc3Cl)cc2C(=O)N(C)C(C)C)ccc1S(=O)(=O)N1CCCC1` it is below 10000 nM.

As to `CCc1nc(-c2cc(NS(=O)(=O)c3ccc(Cl)cc3Cl)ccc2Oc2ccc(S(=O)(=O)N3CCOCC3)cc2)cs1`, the IC50 was below 1000 nM. For the molecule `CCOC(=O)c1cc(NS(=O)(=O)c2ccc(Cl)cc2Cl)ccc1Oc1ccc(S(=O)(=O)N2CCOCC2)c(C)c1`, the IC50 was below 30000 nM. The figure for `O=C(c1cc(NS(=O)(=O)c2ccc(Cl)cc2Cl)ccc1Sc1ccc(S(=O)(=O)N2CCOCC2)cn1)C1CC1` is below 1000 nM. In the case of `CC(=O)c1cc(NS(=O)(=O)c2ccc(F)c(C(F)(F)F)c2)cc(Cl)c1Oc1ccc(S(=O)(=O)N2CCOCC2)cc1`, the IC50 was below 1000 nM. The figure for `CCCC(=O)c1cc(NS(=O)(=O)c2ccc(Cl)cc2Cl)ccc1Oc1ccc(S(=O)(=O)C2CCCC2)cc1` is below 1000 nM; for `CC(=O)c1cc(NS(=O)(=O)c2cc(C)c(Cl)cc2Cl)ccc1Oc1ccc(S(=O)(=O)N2CCCCC2)c(C)c1` it is below 1000 nM.

As for `Cc1cc(Oc2ccc(NS(=O)(=O)c3ccc(OC(F)(F)F)cc3Cl)cc2C(=O)NC(C)C)ccc1S(=O)(=O)N1CCCC1`, the IC50 is below 10000 nM. Then `CC(=O)c1cc(NS(=O)(=O)c2ccc(F)cc2F)cc(Cl)c1Oc1ccc(S(=O)(=O)N2CCOCC2)cc1`, with below 10000 nM. As to `CC(=O)c1cc(NS(=O)(=O)c2ccc(C(F)(F)F)cc2Cl)cc(Cl)c1Oc1ccc(S(=O)(=O)N2CCCC2)c(C)c1`, the IC50 was below 1000 nM. Then `CS(=O)(=O)c1ccc(Sc2c(Cl)cc(NS(=O)(=O)c3ccc(C(F)(F)F)cc3Cl)cc2Cl)cc1`, with below 1000 nM. The figure for `CCN(CC)S(=O)(=O)c1ccc(Sc2c(Cl)cc(NS(=O)(=O)c3ccc(C(F)(F)F)cc3Cl)cc2Cl)cc1` is below 1000 nM; for `CCN(CCNC)S(=O)(=O)c1ccc(Sc2c(Cl)cc(NS(=O)(=O)c3ccc(C(F)(F)F)cc3Cl)cc2Cl)cc1` it is below 1000 nM.

For `CCNS(=O)(=O)c1ccc(Oc2c(Cl)cc(NS(=O)(=O)c3ccc(C(F)(F)F)cc3Cl)cc2Cl)cc1`, the IC50 is below 1000 nM.

As to `CC(=O)c1cc(NS(=O)(=O)c2cc(C)c(Cl)cc2Cl)cc(Cl)c1Oc1ccc(S(=O)(=O)N2CCCCC2)c(Cl)c1`, the IC50 was below 1000 nM.

With `Cc1cc(S(=O)(=O)N2CCCC2)ccc1Oc1c(Cl)cc(NS(=O)(=O)c2ccc(C(F)(F)F)cc2Cl)cc1Cl`, the IC50 was below 1000 nM. Consider `CCN(CC)S(=O)(=O)c1ccc(Oc2c(Cl)cc(NS(=O)(=O)c3cc(F)cc(Cl)c3C)cc2Cl)cc1`, for which the IC50 was below 1000 nM. Then `O=S(=O)(Nc1cc(Cl)c(Oc2ccc(S(=O)(=O)N3CC[S+]([O-])CC3)cc2)c(Cl)c1)c1ccc(C(F)(F)F)cc1Cl`, with below 1000 nM. Then `CC(C)CNC(=O)c1cc(NS(=O)(=O)c2ccc(Cl)cc2Cl)ccc1Oc1ccc(S(=O)(=O)N2CCCCC2)cc1`, with below 1000 nM; and `O=C(O)c1cc(NS(=O)(=O)c2ccc(C(F)(F)F)cc2Cl)cc(Cl)c1Oc1ccc(S(=O)(=O)N2CCOCC2)cc1`, with below 10000 nM; and `O=S(=O)(Nc1ncc(Sc2ccc3ccccc3c2)c(O)n1)c1ccc(Cl)cc1Cl`, with below 10000 nM. Then `CC(=O)c1cc(NS(=O)(=O)c2ccc(Cl)cc2Cl)ccc1Oc1ccc(S(=O)(=O)N2CCCCC2)c(C)c1`, with below 1000 nM; and `O=S(=O)(Nc1cc(Cl)c(Sc2ccc(S(=O)(=O)N3CCNCC3)cc2)c(Cl)c1)c1ccc(C(F)(F)F)cc1Cl`, with below 1000 nM; and `Cc1cc(Oc2ccc(NS(=O)(=O)c3ccc(Cl)cc3Cl)cc2C(=O)C2CC2)ccc1S(=O)(=O)N1CCCCC1`, with below 1000 nM. In the case of `Cc1cc(Oc2ccc(NS(=O)(=O)c3ccc(C(F)(F)F)cc3Cl)cc2C(=O)N(C)C(C)C)ccc1S(=O)(=O)N1CCCCC1`, the IC50 was below 1000 nM. As to `CCN(CC)S(=O)(=O)c1ccc(Oc2ccc(NS(=O)(=O)c3cc(C)c(Cl)cc3Cl)cc2Cl)cc1`, the IC50 is below 1000 nM. For `COc1cc(C)ccc1S(=O)(=O)Nc1cc(Cl)c(Oc2ccc(S(=O)(=O)N3CCOCC3)cc2)c(C(C)=O)c1`, the IC50 is below 1000 nM.

As to `CC(=O)c1cc(NS(=O)(=O)c2c(C)cccc2Cl)cc(Cl)c1Oc1ccc(S(=O)(=O)N2CCOCC2)cc1`, the IC50 was below 10000 nM. For the molecule `CC(=O)c1cc(NS(=O)(=O)c2ccc(C(F)(F)F)cc2Cl)cc(Cl)c1Oc1ccc(S(=O)(=O)N2CCCCC2)c(C)c1`, the IC50 was below 1000 nM. Then `CCN(CC)S(=O)(=O)c1ccc(Oc2ccc(NS(=O)(=O)c3cc(C)c(Cl)cc3Cl)cc2C)cc1`, with below 30000 nM. Then `CC(=O)c1cc(NS(=O)(=O)c2cc(C)c(Cl)cc2Cl)cc(Cl)c1Oc1ccc(S(=O)(=O)N2CCCCC2)cc1`, with below 1000 nM; and `Cc1cc(Oc2ccc(NS(=O)(=O)c3ccc(C(F)(F)F)cc3Cl)cc2C(=O)N(C)C(C)C)ccc1S(=O)(=O)N1CCCC1`, with below 10000 nM. The figure for `N#CCC(=O)c1cc(NS(=O)(=O)c2ccc(Cl)cc2Cl)ccc1Oc1ccc(S(=O)(=O)N2CCCCC2)cc1` is below 10000 nM; for `CC(=O)c1cc(NS(=O)(=O)c2ccc(Cl)cc2Cl)cc(Cl)c1Oc1ccc(S(=O)(=O)N2CCCC2)c(C)c1` it is below 1000 nM; for `CC(C)S(=O)(=O)c1ccc(Oc2c(Cl)cc(NS(=O)(=O)c3ccc(C(F)(F)F)cc3Cl)cc2Cl)cc1` it is below 1000 nM. On to `CN(C)C(=O)c1cc(NS(=O)(=O)c2ccc(Cl)cc2Cl)cc(Cl)c1Oc1ccc(S(=O)(=O)N2CCOCC2)cc1`, for which the IC50 is below 1000 nM. For `Cc1cc(S(=O)(=O)N2CCOCC2)ccc1Oc1c(Cl)cc(NS(=O)(=O)c2ccc(C(F)(F)F)cc2Cl)cc1Cl`, the IC50 is below 1000 nM. The figure for `O=S(=O)(Nc1cc(Cl)c(Oc2ccc(S(=O)(=O)C3CCCCC3)cc2)c(Cl)c1)c1ccc(C(F)(F)F)cc1Cl` is below 1000 nM; for `CC(=O)c1cc(NS(=O)(=O)c2ccc(F)cc2)cc(Cl)c1Oc1ccc(S(=O)(=O)N2CCOCC2)cc1` it is below 10000 nM. As for `CCC(C)NC(=O)c1cc(NS(=O)(=O)c2ccc(Cl)cc2Cl)ccc1Oc1ccc(S(=O)(=O)N2CCCCC2)c(C)c1` (centres unmarked), the IC50 was below 1000 nM. Then `CC(=O)c1cc(NS(=O)(=O)c2ccc(Cl)cc2Cl)cc(Cl)c1Oc1ccc(S(=O)(=O)N2CCCCC2)c(C)c1`, with below 1000 nM; and `CC(=O)c1cc(NS(=O)(=O)c2cccc3ccccc23)cc(Cl)c1Oc1ccc(S(=O)(=O)N2CCOCC2)cc1`, with below 10000 nM. The figure for `CC(=O)c1cc(NS(=O)(=O)c2cccc(OC(F)(F)F)c2)cc(Cl)c1Oc1ccc(S(=O)(=O)N2CCOCC2)cc1` is below 10000 nM; for `COc1ccc(S(=O)(=O)Nc2cc(Cl)c(Oc3ccc(S(=O)(=O)N4CCOCC4)cc3)c(C(C)=O)c2)cc1F` it is below 1000 nM. The figure for `O=S(=O)(Nc1ccc(Oc2ccc(S(=O)(=O)N3CCOCC3)cc2)cc1)c1cc(Cl)c(Cl)cc1Cl` is below 1000 nM; for `COc1ccc(OC)c(S(=O)(=O)Nc2cc(Cl)c(Oc3ccc(S(=O)(=O)N4CCOCC4)cc3)c(C(C)=O)c2)c1` it is below 10000 nM.

`CC1CC(C)CN(S(=O)(=O)c2ccc(Oc3c(Cl)cc(NS(=O)(=O)c4ccc(C(F)(F)F)cc4Cl)cc3Cl)cc2)C1` (centres unmarked): the IC50 is below 1000 nM. For the molecule `Cc1cc(S(=O)(=O)Nc2ccc(Oc3ccc(S(=O)(=O)N4CCCCC4)cc3)c(C(=O)N(C)C(C)C)c2)c(Cl)cc1Cl`, the IC50 is below 1000 nM. As to `CCN(CC)S(=O)(=O)c1ccc(Oc2c(Cl)cc(NS(=O)(=O)c3cc(C)c(Cl)cc3Cl)cc2C(C)=O)cc1`, the IC50 was below 1000 nM.

The values are drawn from US7893077B2, “Bisaryl-sulfonamides” (Amgen Inc., priority 2004, dated 2011).
